Data taken from paper PMC10485887, “PET Evaluation of the Novel F-18 Labeled Reversible Radioligand [^18F]GEH200449 for Detection of Monoamine Oxidase-B in the Non-Human Primate Brain” (ACS Chemical Neuroscience, 2023).
“And” between values parts separate entries of the source, which are not always exact repeats. Equal entries are not always repeated. Where two headings read alike, the source gives them in different places.

System: MAO-B
Assay type: in vivo, Macaca fascicularis
Settings: for occupancy at MAO-B ([^18F]GEH200449 binding sites): 45 min before radioligand
Method: Each PET measurement was performed on a separate experimental day. Experiments conducted in the same NHP were separated by at least 6 weeks. Baseline PET measurements were initially undertaken in each of the five NHPs.
Time curves for regional [^18F]GEH200449 binding at baseline were analyzed by kinetic modeling using 1-TC and 2-TC models,[32] and VT as outcome measures. Akaike information criterion[33] and F statistics were applied to select the preferred model. Regional estimates of VT for [^18F]GEH200449 were also obtained using the Logan linear graphical method[34] with t* fixed at 40 min. The analyses were performed using the kinetic modeling tool in PMOD v. 4.3. Occupancy at [^18F]GEH200449 binding sites was estimated based on regional VT values obtained by the Logan method at baseline and after drug administration according to a graphical procedure described in the literature.[22]

C#CCN(C)[C@H](C)Cc1ccccc1 [L-deprenyl]
occupancy at MAO-B ([^18F]GEH200449 binding sites) (0.5 mg/kg IV, NHP #4, graphical analysis of VT): 97% and > 80%
effect on [^18F]GEH200449 binding, displacement (0.5 mg/kg administered 25 min after radioligand injection): markedly reduced
occupancy at MAO-B ([^18F]GEH200449 binding sites) (1.0 mg/kg IV, NHP #1, graphical analysis of VT): 82% and > 80%
effect on [^18F]GEH200449 regional radioactivity (pretreatment 45 min before radioligand injection): inhibited
